# Values of other authors in patent US11111252B2, “Pyrimidine compounds and pyrimido indole compounds and methods of use” (Duquesne University of the Holy Spirit, priority 2014, dated 2021).
# Sequences of proteins named here, by UniProt entry; tags and fusion partners are left off. Residues count along the entry.
# UniProt P09619, 33-1106, species assumed: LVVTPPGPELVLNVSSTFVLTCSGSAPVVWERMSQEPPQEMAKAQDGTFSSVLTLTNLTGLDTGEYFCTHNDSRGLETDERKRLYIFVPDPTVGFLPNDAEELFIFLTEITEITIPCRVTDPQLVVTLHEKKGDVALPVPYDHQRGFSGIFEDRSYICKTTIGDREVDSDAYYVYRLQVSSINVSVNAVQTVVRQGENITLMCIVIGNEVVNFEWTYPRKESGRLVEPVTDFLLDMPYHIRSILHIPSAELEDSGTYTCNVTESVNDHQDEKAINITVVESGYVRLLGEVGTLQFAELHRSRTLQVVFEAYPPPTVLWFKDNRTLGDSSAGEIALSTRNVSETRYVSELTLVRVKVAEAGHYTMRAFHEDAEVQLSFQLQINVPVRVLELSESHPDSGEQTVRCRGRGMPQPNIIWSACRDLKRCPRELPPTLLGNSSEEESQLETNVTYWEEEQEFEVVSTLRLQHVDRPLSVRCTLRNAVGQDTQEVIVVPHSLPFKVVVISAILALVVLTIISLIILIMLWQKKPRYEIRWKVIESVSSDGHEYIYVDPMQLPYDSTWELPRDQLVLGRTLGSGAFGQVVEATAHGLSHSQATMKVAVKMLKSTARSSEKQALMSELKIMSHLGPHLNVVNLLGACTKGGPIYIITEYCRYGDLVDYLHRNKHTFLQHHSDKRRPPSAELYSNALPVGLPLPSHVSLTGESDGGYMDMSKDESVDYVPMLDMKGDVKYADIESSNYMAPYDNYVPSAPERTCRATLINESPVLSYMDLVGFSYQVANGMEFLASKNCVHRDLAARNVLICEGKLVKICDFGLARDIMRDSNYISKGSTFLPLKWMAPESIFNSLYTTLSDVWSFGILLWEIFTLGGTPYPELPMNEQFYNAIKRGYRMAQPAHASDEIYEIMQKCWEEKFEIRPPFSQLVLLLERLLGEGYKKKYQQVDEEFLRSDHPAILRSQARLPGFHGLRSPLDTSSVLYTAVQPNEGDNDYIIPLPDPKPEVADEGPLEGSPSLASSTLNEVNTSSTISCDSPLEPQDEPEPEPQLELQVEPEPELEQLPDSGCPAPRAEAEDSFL
# Target: PDGFR-β (Homo sapiens (Human), UniProt P09619)
# Conditions: Table 9; read-out: PDGFR-β Kinase Inhibition IC50; cited from earlier work
smiles,measurement,value
CN(C)c1ccc(/C=C2/C(=O)Nc3ccccc32)cc1 [DMBI],IC50,3.75 µM
